Measured values from ChEMBL document CHEMBL3259811, “Synthesis and in vitro evaluation of bis-quaternary 2-(hydroxyimino)-N-(pyridin-3-yl)acetamide derivatives as reactivators against sarin and VX inhibited human acetylcholinesterase (hAChE)” (2014).

assay: Acidic dissociation constant, pKa of the compound in phosphate/tris/glycine-NaOH containing buffer by UV-vis spectrophotometric analysis

Point of comparison: O=C(/C=N/O)Nc1ccc[n+](Cc2ccc(C[n+]3cccc(NC(=O)/C=N/O)c3)cc2)c1.[Br-].[Br-], pKa 7.95. Against it:
- O=C(/C=N/O)Nc1ccc[n+](Cc2ccccc2C[n+]2cccc(NC(=O)/C=N/O)c2)c1.[Br-].[Br-] — within 0.2 log units, 8.1
- O=C(/C=N/O)Nc1ccc[n+](Cc2cccc(C[n+]3cccc(NC(=O)/C=N/O)c3)c2)c1.[Br-].[Br-] — higher, 8.23
- O=C(/C=N\O)Nc1ccc[n+](CCCCCCC[n+]2cccc(NC(=O)/C=N\O)c2)c1.[Br-].[Br-] — higher, 8.22
- O=C(/C=N\O)Nc1ccc[n+](CCC[n+]2cccc(NC(=O)/C=N\O)c2)c1.[Br-].[Br-] — higher, 8.17
- O=C(/C=N/O)Nc1ccc[n+](CC[n+]2cccc(NC(=O)/C=N/O)c2)c1.[Br-].[Br-] — within 0.2 log units, 8.14
- O=C(/C=N\O)Nc1ccc[n+](CCCCCC[n+]2cccc(NC(=O)/C=N\O)c2)c1.[Br-].[Br-] — higher, 8.25
- O=C(/C=N\O)Nc1ccc[n+](CCCC[n+]2cccc(NC(=O)/C=N\O)c2)c1.[Br-].[Br-] — higher, 8.16
- O/N=C/c1cc[n+](CCC[n+]2ccc(/C=N/O)cc2)cc1.[Br-].[Br-] — within 0.2 log units, 7.8
- O=C(/C=N\O)Nc1ccc[n+](CCCCC[n+]2cccc(NC(=O)/C=N\O)c2)c1.[Br-].[Br-] — within 0.2 log units, 8.14
